Amino acid sequences for entries named in this document (tags omitted). A change or cut given only in a name is not applied to a line headed by its entry.
UniProt P08246: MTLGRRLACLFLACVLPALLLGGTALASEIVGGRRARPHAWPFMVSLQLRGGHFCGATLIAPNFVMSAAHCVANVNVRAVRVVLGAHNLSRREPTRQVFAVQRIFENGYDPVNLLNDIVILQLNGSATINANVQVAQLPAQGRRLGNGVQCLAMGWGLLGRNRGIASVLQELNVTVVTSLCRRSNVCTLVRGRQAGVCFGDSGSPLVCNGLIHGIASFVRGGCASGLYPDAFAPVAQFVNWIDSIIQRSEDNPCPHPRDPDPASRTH

In patent US9475779B2, “Substituted bicyclic dihydropyrimidinones and their use as inhibitors of neutrophil elastase activity” (priority 2014, dated 2016):

What was measured:
neutrophil elastase [1] = target: T1, neutrophil elastase (Homo sapiens (Human), UniProt P08246); test: biochemical
neutrophil elastase [2] = target: T1, neutrophil elastase; test: biochemical; remark: listed apart in the source

Structure (SMILES)	EC50 (neutrophil elastase [1]) [nM]	IC50 (neutrophil elastase [2]; IC50, Neutrophil Elastase assay, substrate MeOSuc-Ala-Ala-Pro-Val-AMC) [nM]	IC50 (neutrophil elastase [2]; read-out: IC50) [nM]	IC50 (neutrophil elastase [2]; Neutrophil Elastase assay, substrate MeOSuc-Ala-Ala-Pro-Val-AMC, read-out: IC50) [nM]
CC[S+]([O-])c1cc(C#N)ccc1C1C2=C(CCC2=O)N(c2cccc(C(F)(F)F)c2)C(=O)N1C (single isomer, unassigned) [Example C.5.1, 3-Ethanesulfinyl-4-[3-methyl-2,5-dioxo-1-(3-trifluoromethyl-phenyl)-2,3,4,5,6,7-hexahydro-1H-cyclopentapyrimidin-4-yl]-benzonitrile]	2			
CC[S+]([O-])c1cc(C#N)ccc1C1C2=C(CCC2=O)N(c2cccc(C(F)(F)F)c2)C(=O)N1C (single isomer, unassigned) [Example C.5.2, 3-Ethanesulfinyl-4-[3-methyl-2,5-dioxo-1-(3-trifluoromethyl-phenyl)-2,3,4,5,6,7-hexahydro-1H-cyclopentapyrimidin-4-yl]-benzonitrile]	1			
CN1C(=O)N(c2ccnc(C(F)(F)F)c2)C2=C(C(=O)CC2)C1c1ccc(C#N)cc1S(C)(=O)=O (single isomer, unassigned) [Example D.1A, 3-Methanesulfonyl-4-[3-methyl-2,5-dioxo-1-(2-trifluoromethyl-pyridin-4-yl)-2,3,4,5,6,7-hexahydro-1H-cyclopentapyrimidin-4-yl]-benzonitrile]	1	2.6		
CC(O)c1cc(C#N)ccc1C1C2=C(CCC2=O)N(c2cccc(C(F)(F)F)c2)C(=O)N1C (stereo not shown) [Example A.3, 3-(1-Hydroxy-ethyl)-4-[3-methyl-2,5-dioxo-1-(3-trifluoromethyl-phenyl)-2,3,4,5,6,7-hexahydro-1H-cyclopentapyrimidin-4-yl]-benzonitrile]	1		< 1	
CN1C(=O)N(c2ccnc(C(F)(F)F)c2)C2=C(C(=O)CC2)C1c1ccc(C#N)cc1S(C)(=O)=O (stereo not shown) [Example D.1B, 3-Methanesulfonyl-4-[3-methyl-2,5-dioxo-1-(2-trifluoromethyl-pyridin-4-yl)-2,3,4,5,6,7-hexahydro-1H-cyclopentapyrimidin-4-yl]-benzonitrile]				19

Read-outs that look alike come from different tables or passages of the source.
